# Measured values published in ChEMBL document CHEMBL1146982, “Alpha-methylated derivatives of 2-arachidonoyl glycerol: synthesis, CB1 receptor activity, and enzymatic stability” (Bioorg Med Chem Lett, 2006).
# Amino acid sequences for entries named in this document (tags omitted).
# UniProt P20272, whole entry: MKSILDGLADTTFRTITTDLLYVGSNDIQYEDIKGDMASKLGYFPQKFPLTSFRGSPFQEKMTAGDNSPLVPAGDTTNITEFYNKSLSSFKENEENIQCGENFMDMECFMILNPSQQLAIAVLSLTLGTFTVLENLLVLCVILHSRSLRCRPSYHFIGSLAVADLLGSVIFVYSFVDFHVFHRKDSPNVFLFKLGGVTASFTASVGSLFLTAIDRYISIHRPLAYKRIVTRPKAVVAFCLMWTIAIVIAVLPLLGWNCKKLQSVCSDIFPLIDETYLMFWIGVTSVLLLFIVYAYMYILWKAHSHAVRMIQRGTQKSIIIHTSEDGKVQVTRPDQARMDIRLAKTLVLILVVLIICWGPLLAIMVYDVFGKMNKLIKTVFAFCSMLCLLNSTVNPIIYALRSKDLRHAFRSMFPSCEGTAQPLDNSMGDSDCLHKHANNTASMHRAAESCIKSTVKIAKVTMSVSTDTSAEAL
# Target: Cannabinoid receptor 1 (Rattus norvegicus, UniProt P20272)
# Test: Potency at CB1 receptor in rat brain by [35S]GTP-gamma-S binding assay
# Type: functional, tissue-based
smiles,measurement,value
CCCCC/C=C\C/C=C\C/C=C\C/C=C\CCCC(=O)OC(CO)CO [2-ARACHIDONOYLGLYCEROL],EC50,1000 nM
